Source: PubChem BioAssay AID1456 (Vanderbilt High Throughput Screening Facility, 2008)
Only a part is listed here, and it is no random draw. Some tests of the compounds listed are not included; inactive here does not mean inactive elsewhere. The source made the active and inactive calls.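 How the source made its calls: active means thallium flux slope and its plate-corrected score both differing from the plate sample mean at a set confidence after two filtering rounds, in either direction; inactive means the rest.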

Chains of the proteins cited; added tags and fusions are not shown.
UniProt Q9H2X9, whole entry: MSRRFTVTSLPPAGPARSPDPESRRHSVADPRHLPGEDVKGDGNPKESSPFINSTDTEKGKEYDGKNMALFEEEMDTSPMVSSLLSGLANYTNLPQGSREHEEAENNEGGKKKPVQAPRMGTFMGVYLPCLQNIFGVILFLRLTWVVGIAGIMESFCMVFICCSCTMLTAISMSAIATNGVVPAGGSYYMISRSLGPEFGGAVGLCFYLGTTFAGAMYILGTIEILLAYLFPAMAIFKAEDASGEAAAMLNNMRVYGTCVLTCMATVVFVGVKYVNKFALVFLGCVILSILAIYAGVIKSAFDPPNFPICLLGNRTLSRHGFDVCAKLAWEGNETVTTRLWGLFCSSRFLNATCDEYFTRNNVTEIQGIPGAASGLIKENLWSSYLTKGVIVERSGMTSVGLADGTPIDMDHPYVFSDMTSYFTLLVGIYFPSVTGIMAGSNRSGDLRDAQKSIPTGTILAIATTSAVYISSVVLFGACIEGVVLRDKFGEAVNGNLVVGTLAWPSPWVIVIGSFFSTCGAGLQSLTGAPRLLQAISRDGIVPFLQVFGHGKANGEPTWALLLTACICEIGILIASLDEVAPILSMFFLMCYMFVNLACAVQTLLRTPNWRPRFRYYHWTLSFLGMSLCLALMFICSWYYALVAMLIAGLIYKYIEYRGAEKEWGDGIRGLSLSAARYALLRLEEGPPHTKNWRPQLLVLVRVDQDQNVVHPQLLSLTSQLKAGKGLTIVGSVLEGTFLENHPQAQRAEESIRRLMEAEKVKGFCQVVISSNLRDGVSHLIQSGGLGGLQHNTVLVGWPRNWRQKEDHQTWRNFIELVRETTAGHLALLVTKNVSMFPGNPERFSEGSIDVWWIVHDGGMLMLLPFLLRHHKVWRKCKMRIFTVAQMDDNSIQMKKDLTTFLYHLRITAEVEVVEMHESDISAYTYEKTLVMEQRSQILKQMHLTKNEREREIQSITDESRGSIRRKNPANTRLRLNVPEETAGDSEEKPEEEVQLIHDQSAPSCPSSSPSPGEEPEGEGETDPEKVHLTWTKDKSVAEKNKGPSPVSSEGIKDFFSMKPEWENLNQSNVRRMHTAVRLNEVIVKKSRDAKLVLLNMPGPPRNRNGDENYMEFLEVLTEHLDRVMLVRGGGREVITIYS

Each compound was assayed against Solute carrier family 12 member 5 (Homo sapiens) (UniProt Q9H2X9) (assay: modulation of human KCC2 ion transport – cell-based, HEK293 KCC2, FluoZin-2 fluorescence, MLSMR, primary screen (AID 1456)). Settings: KCC2 cells, thallium flux FluoZin-2 fluorescence; at 10 µM; stronger effect = higher value.

How did the B-score turn out when `C=CCN1CCN(CCOC(=O)C(O)(c2ccccc2)c2ccccc2)CC1` was run?
The B-score was inactive: 1.27.

Which B-score does the source give for `CN(C)C1CCCC1OC(=O)C(O)(c1ccccc1)c1ccccc1` (configuration not stated) here?
Its B-score is inactive: 0.69.

`Cc1ccccc1C(=O)NCC1(N2CCCCC2)CCCCC1` was tested. Which B-score did it give?
The B-score was inactive: 1.01.

For `CCN(CC)CC(C)C(C)OC(=O)C(O)(c1ccccc1)c1ccccc1` (configuration not stated), which B-score is on record?
Its B-score is inactive: -0.00666.

Which B-score does the source give for `COc1ccc(Br)c(C(=O)NCC2(N3CCCCC3)CCCCC2)c1` here?
The B-score was inactive: -1.12.

Which B-score does the source give for `O=C(OC1CN2CCC1CC2)C(CO)(c1ccccc1)c1ccccc1` (configuration not stated) here?
Its B-score is inactive: 0.015.

With `COc1cccc(C(=O)NCC2(N3CCCCC3)CCCCC2)c1` as the compound, how does the B-score read?
The B-score was inactive: 0.0592.
